Measurements: PMC9581132, “Cross clinical-experimental-computational qualification of in silico drug trials on human cardiac purkinje cells for proarrhythmia risk prediction” (Frontiers in Toxicology, 2022)

Protein sequences, listed by entry. Tags and fused reporters are not part of them. Lines headed by an entry give the natural chain unless they say otherwise; changes in a name come on top.
UniProt Q12809: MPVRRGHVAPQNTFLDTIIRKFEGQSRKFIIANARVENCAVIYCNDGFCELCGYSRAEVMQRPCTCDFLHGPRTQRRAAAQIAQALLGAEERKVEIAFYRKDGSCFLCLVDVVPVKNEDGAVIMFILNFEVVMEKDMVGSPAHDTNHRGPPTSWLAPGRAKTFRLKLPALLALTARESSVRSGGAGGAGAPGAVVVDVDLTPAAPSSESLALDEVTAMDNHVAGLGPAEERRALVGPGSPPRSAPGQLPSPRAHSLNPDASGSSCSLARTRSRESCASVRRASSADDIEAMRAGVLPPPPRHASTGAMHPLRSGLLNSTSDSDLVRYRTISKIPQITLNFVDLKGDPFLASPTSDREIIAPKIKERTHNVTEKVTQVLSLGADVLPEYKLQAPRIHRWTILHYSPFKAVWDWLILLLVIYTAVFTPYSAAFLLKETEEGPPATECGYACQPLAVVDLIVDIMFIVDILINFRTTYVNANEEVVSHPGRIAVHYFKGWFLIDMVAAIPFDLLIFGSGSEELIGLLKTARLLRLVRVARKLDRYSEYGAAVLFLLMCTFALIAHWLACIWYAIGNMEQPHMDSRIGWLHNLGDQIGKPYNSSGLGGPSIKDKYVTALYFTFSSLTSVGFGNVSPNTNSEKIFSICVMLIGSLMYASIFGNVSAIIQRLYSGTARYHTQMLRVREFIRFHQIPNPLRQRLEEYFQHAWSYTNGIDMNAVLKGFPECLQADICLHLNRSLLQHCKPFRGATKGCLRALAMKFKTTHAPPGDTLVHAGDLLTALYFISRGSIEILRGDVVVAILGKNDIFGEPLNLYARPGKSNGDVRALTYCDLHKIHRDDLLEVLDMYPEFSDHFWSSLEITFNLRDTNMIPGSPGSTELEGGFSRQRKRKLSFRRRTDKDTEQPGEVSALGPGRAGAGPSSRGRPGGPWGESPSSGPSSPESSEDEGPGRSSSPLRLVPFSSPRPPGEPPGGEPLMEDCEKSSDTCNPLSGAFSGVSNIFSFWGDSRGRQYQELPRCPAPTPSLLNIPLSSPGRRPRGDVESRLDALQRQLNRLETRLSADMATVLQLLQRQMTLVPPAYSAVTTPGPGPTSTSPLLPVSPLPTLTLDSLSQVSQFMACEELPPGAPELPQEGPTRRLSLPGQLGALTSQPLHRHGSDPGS
UniProt Q13936, whole entry: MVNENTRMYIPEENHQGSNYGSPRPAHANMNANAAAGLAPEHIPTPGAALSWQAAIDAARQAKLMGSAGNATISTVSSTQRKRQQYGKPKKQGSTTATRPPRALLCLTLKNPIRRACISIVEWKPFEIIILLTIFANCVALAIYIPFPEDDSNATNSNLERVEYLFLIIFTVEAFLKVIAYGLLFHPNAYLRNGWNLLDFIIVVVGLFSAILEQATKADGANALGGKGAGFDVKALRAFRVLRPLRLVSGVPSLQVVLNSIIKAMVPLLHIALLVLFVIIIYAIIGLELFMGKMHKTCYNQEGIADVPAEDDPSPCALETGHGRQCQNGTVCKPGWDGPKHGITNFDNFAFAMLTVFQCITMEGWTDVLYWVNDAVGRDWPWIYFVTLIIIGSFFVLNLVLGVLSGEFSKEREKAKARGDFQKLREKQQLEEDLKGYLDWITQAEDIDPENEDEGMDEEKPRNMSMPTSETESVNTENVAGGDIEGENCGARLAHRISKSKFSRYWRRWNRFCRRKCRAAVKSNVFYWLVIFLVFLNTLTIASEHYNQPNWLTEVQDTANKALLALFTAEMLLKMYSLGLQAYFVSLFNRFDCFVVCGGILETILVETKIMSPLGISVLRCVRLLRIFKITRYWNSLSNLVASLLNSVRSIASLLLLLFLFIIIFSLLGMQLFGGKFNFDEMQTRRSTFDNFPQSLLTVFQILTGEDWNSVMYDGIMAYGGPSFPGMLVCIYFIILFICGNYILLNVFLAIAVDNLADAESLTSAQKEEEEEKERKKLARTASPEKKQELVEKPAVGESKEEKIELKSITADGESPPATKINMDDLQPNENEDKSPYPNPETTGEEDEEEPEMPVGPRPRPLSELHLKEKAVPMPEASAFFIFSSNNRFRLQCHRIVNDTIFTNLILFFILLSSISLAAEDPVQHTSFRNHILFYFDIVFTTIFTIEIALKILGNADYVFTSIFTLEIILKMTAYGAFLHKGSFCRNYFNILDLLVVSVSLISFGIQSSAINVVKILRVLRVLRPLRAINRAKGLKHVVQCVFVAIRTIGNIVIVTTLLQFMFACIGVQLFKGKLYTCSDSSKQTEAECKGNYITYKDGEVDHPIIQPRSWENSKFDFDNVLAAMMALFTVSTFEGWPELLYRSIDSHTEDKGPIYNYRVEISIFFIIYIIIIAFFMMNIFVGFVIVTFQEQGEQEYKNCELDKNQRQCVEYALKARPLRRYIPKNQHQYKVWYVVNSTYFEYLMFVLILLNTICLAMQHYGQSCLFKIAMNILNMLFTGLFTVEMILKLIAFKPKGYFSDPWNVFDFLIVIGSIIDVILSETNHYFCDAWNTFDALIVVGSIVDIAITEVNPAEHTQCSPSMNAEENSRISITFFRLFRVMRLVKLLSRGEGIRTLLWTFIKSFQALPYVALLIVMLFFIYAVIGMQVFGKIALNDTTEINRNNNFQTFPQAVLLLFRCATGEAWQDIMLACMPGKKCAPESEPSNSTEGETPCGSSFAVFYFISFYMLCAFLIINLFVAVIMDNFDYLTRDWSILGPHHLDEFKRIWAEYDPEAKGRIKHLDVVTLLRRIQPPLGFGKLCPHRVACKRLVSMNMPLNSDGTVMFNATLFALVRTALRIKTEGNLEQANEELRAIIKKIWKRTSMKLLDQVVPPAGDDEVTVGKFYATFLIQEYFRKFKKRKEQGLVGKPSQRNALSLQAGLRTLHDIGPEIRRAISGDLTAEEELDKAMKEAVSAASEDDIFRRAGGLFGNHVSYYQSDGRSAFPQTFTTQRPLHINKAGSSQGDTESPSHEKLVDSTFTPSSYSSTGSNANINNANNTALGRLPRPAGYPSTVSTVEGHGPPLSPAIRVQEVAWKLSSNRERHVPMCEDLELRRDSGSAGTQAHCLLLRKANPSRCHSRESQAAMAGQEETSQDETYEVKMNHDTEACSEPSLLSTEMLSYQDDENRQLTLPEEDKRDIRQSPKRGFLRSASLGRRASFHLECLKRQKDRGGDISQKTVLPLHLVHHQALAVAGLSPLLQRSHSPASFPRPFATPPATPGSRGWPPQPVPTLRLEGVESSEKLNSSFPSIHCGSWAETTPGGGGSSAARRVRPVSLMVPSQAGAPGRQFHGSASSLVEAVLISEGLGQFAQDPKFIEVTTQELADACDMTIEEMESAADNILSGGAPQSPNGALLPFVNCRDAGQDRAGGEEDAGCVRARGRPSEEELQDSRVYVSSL

Tests used:
Type in all cases: cell-based
hKv4.3 = target: T1, hKv4.3 (Homo sapiens, UniProt Q9UK17); experiment: Automated patch clamp (QPatch), transient outward K+ current Ito; settings: room temperature; dash = no effect or IC50 much higher than tested concentrations
T1 construct: expressed in transfected cells; host or cells: HEK-293
T1 sequence (Q9UK17 1-655): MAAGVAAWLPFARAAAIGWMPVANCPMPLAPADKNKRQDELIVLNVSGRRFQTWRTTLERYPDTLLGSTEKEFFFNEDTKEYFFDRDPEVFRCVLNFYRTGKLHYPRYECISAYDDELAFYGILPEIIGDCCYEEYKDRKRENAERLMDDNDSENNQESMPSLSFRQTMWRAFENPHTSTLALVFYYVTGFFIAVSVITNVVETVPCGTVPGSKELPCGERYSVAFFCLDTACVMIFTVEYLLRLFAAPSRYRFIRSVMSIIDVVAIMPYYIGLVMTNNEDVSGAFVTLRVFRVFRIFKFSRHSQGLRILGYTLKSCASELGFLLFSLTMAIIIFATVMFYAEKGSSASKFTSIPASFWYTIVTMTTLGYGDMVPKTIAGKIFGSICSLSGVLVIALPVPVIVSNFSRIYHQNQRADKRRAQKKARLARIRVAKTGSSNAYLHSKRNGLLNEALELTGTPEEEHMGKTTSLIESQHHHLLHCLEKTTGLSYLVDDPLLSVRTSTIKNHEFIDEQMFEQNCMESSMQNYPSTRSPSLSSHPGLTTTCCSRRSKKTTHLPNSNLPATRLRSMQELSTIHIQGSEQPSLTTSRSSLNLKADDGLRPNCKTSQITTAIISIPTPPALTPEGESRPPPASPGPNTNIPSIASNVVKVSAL

hERG = target: T2, hERG (Homo sapiens, UniProt Q12809); experiment: Automated patch clamp (QPatch), hERG tail current IKr; settings: room temperature
T2 construct: host or cells: CHO (hERG-CHO) and HEK-293 stably transfected with hERG cDNA

hCav1.2 = target: T3, hCav1.2 (Homo sapiens, UniProt Q13936); experiment: Automated patch clamp (QPatch), L-type Ca2+ current ICaL; settings: room temperature; dash = no effect or IC50 much higher than tested concentrations
T3 construct: expressed in transfected cells; host or cells: CHO

`Cc1nc2n(c(=O)c1CCN1CCC(c3noc4cc(F)ccc34)CC1)CCCC2` gave an IC50 (hKv4.3) of 43 µM.

With `CC(C)COCC(CN(Cc1ccccc1)c1ccccc1)N1CCCC1` (stereo not drawn) [Bepridil] the IC50 (hERG) was 0.19 µM and the IC50 (hCav1.2) was 6 µM.
